Test system: HeLa cells
Settings: dose-response up to 10 μM, co-treated with DNMDP, 48 hours
Protocol: HeLa cells were co-treated with 30 nM DNMDP (the EC70 concentration) and 20 μM of each bioactive compound. Cell viability after 48-hour treatment was assessed by ATP consumption as described earlier.
1000 HeLa cells were plated in a 384-well plate in 40 μl of DMEM supplemented with 10% Fetal Bovine Serum and 1% Pen/Strep. 24 hours after plating, a compound-library of 1600 bioactive molecules (Pharmacon) was added at a concentration of 20 μM. In parallel to bioactive compound incubation, DNMDP was added to a final concentration of 30 nM and incubated for 48 hours. Cell viability was assessed as described in Compound library screening in NCI-H1734 and A549 cell lines.

## OCCN(CCO)c1nc(N2CCCCC2)c2nc(N(CCO)CCO)nc(N3CCCCC3)c2n1 [dipyridamole]
  rescue of DNMDP cytotoxicity / competition with DNMDP: not effective competitors

From patent publication US11207320B2, “Compositions and methods for cancer expressing PDE3A or SLFN12” (The Broad Institute, Inc., priority 2015, dated 2021)
